Consider 1 molecule from ChEMBL document CHEMBL3875218, “Bifunctional conjugates with potent inhibitory activity towards cyclooxygenase and histone deacetylase” (Bioorg Med Chem, 2017).

Broadly, the IC50 is the point on the concentration scale where inhibition reaches its midpoint.

The nature of this experiment: cells. Format: functional, cell-based. Conditions: Homo sapiens, LNCaP, 72 h.

With `Cc1ccc(-c2cc(C(F)(F)F)nn2-c2ccc(S(N)(=O)=O)cc2)cc1` [CELECOXIB], the half-inhibitory concentration (IC50) was found to be 32.6 µM.
